The values that follow are results of earlier work, collected in patent publication US12440457B2, “Methods of treating suicidality” (Seelos Therapeutics, Inc., priority 2020, dated 2025).

The target of the data set is NMDA receptor. The settings on record: unit inferred; Moaddel et al. 2013; read-out: Ki, binding to the NMDA receptor; cited from earlier work.

Structures are written as SMILES.

A word on the Ki: it is the dissociation constant of the complex between target and ligand, obtained from inhibition or displacement. Regarding `CNC1(c2ccccc2Cl)CCCCC1=O` (racemic) [intranasal racemic ketamine, racemic ketamine], the Ki is about 1060 nM.
